In ChEMBL document CHEMBL1156692, “Synthesis of novel 7-benzylamino-2H-1,4-benzoxazin-3(4H)-ones as anticonvulsant agents” (Eur J Med Chem, 2008):

Species: Mus musculus
Assay: Protective index, ratio of TD50 for C57B/6 mouse by rotarod test to ED50 for C57BL/6 mouse by MES test
Format: functional

For `NC(=O)N1c2ccccc2C=Cc2ccccc21` [CARBAMAZEPINE], the Ratio was 8.1.
